Source: patent publication US7960404B2, “Spirocyclic cyclohexane compounds” (dated 2011)
Read-outs that look alike come from different tables or passages of the source.

By UniProt entry, the sequences of proteins in these tests, tags left out.
UniProt P41146, whole entry: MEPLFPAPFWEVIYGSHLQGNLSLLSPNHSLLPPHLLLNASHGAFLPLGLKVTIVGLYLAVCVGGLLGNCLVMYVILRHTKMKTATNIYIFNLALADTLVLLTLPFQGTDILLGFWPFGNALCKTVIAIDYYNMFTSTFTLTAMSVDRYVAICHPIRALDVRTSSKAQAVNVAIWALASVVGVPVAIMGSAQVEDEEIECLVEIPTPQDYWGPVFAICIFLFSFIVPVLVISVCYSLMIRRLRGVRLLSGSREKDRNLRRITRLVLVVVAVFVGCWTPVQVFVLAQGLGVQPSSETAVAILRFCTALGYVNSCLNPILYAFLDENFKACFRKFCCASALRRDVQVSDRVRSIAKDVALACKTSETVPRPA
UniProt P35372, whole entry: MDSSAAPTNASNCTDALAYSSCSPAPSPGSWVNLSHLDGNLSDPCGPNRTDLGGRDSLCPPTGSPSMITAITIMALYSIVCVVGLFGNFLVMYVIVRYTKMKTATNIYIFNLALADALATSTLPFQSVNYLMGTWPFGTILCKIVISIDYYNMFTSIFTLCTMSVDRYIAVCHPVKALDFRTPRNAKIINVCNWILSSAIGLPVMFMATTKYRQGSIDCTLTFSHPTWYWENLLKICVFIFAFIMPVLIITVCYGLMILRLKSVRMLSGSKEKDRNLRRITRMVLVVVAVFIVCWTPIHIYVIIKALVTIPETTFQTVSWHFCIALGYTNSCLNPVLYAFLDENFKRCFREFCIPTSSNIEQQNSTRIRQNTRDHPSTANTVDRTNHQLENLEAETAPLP

What was measured:
ORL1 receptor = ORL1 receptor (Homo sapiens, UniProt P41146); test: ORL1 receptor binding assay with 3H-nociceptin/orphanin FQ (SPA)
human μ-opiate receptor = human μ-opiate receptor (Homo sapiens, UniProt P35372); test: μ-opiate receptor binding assay with [3H] naloxone (SPA)
[1] = 1 μM, series R3=phenyl, R8=F, X=O

With `CNC1(c2ccccc2)CCC2(CC1)OCCc1c2[nH]c2ccc(F)cc12` (centres unmarked) the “% inhibition (ORL1) [1 μM]” value (ORL1 receptor; [1]) was 91%, the Ki (ORL1 receptor; read-out: Ki (ORL1) mean, series R3=phenyl, R8=F, X=O) was 11.2 nM and the “% inhibition (μ) [1 μM]” value (human μ-opiate receptor; [1]) was 100%. For the same molecule, the Ki (human μ-opiate receptor; read-out: Ki (μ) mean, series R3=phenyl, R8=F, X=O) was 0.8 nM.

`Fc1cccc(C2(N3CCC3)CCC3(CC2)NCCc2c3[nH]c3ccccc23)c1` (single isomer, unassigned) was tested, and the Ki (ORL1 receptor; read-out: Ki (ORL1)) was 0.8 nM and the Ki (human μ-opiate receptor; read-out: Ki (μ)) was 0.9 nM.

`CCCCC1(N(C)C)CCC2(CC1)OCCc1c2[nH]c2ccc(F)cc12` (centres unmarked) showed a Ki (ORL1 receptor; read-out: Ki (ORL1) mean, series R3=n-butyl, R8=F, X=O) of 1.6 nM and a Ki (human μ-opiate receptor; read-out: Ki (μ) mean, series R3=n-butyl, R8=F, X=O) of 0.9 nM.
